Measured values from patent US20250032493A1, “Methods for Treating Diseases Using MALT1 Inhibitors” (RARIFIED BIOSCIENCES, INC., priority 2021, published 2025).

Experiments:
[1] = test system: rat collagen induced arthritis (CIA) model; experiment: Rat collagen-induced arthritis model: clinical score; details: in vivo
[2] = test system: IL-2R signaling (pSTAT5)
[3] = test system: human Tregs
[4] = test system: Macrophages
[5] = test system: splenic Tregs; details: rat, in vivo
[6] = test system: splenic Tregs; experiment: Rat CIA model: splenic Treg levels; details: in vivo
[7] = test system: rat collagen induced arthritis (CIA) model; experiment: Rat CIA model: plasma and synovial cytokines, anti-collagen and total IgG; details: in vivo

## CO[C@@H](C)c1c(NC(=O)Nc2ccnc(C(F)(F)F)c2)cnc2cc(Cl)nn12 [REO-981]
[1]
  reduction in the clinical score: 38% and 57%
[2]
  pSTAT5 levels in Tregs: no effects
[3]
  FoxP3 expression of Tregs: no effect
  ability of human Tregs to suppress naïve CD4+ T-cell proliferation: did not reduce
  proliferative capacity of responder CD4+ T-cells: decreased proliferative capacity
[4]
  sensitivity of LPS-stimulated macrophages to MALT1i: insensitive
[5]
  Treg reduction in naïve compared with diseased animals: more pronounced in naïve animals
[5]; 1 mg/kg
  reduction in Treg cells: 50%
[6]
  decrease of CD25+FoxP3+ splenic Tregs: statistically significant decrease
[7]
  IL-6 levels in the plasma: significantly reduced
  KC-GRO in plasma and synovial fluid: Significant inhibition
  TNFα in the synovial fluid: Significant reduction
  anti-collagen antibodies in plasma: significant reduction
  total IgG levels: no effect

Values joined by “and” are separate entries in the source; they are usually repeats but may differ in a detail not shown here. Equal entries are not always repeated.
